Test results taken from ChEMBL document CHEMBL1671644, “Inhibition of human immunodeficiency virus type 1 infection by the candidate microbicide dapivirine, a nonnucleoside reverse transcriptase inhibitor” (Antimicrob Agents Chemother, 2009).

Test system: Human immunodeficiency virus 1
Experiment: Antiviral activity against HIV-1 subtype F V029522 infected in human MT4 cells assessed as inhibition of viral replication relative to HIV-1 3B
Format: functional
In short: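 MT-4 cells (3 x 10^4/well) infected with site-directed mutants or recombinant clinical isolates (200 TCID50/well) with drug, cultured 3 to 5 days. Viability read by MTT colorimetric antivirogram assay. IC50 by nonlinear regression; fold change = IC50 for the test isolate / IC50 for wild-type HIV-1 IIIB tested in parallel (mean or median).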

CC(C)Nc1cccnc1N1CCN(C(=O)c2cc3cc(NS(C)(=O)=O)ccc3[nH]2)CC1 [DELAVIRDINE]
Ratio IC50: 3.1
